Laboratory results published in ChEMBL document CHEMBL1770143, “Biological evaluation of 3'-O-alkylated analogs of salacinol, the role of hydrophobic alkyl group at 3' position in the side chain on the α-glucosidase inhibitory activity” (Bioorg Med Chem Lett, 2011).

Protein sequences, listed by entry. Tags and fused reporters are not part of them. Residues count along the entry.
UniProt P23739, 1014-1841 limits assumed: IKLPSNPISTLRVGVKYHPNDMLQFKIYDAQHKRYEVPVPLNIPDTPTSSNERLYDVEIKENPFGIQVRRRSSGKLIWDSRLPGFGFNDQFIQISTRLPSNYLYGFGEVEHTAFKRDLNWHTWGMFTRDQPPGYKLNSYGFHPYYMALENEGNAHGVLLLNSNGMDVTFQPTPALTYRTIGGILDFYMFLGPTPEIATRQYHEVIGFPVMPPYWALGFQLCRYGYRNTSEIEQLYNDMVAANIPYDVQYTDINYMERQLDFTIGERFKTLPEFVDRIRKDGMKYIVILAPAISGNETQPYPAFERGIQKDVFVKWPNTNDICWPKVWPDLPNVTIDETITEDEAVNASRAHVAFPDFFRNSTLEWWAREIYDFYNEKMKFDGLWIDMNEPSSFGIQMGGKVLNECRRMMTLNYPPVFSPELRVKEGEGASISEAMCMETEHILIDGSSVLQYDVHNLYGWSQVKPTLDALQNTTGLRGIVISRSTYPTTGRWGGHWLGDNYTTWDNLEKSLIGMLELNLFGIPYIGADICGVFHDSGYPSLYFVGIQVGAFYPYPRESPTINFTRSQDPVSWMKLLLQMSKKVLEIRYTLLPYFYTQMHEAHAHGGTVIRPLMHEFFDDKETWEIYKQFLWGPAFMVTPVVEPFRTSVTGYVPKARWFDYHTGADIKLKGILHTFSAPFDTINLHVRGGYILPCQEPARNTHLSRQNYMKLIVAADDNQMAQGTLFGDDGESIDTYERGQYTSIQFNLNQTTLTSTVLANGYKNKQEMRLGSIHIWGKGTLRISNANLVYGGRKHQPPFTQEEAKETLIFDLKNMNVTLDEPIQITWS
UniProt P23739, 1-1013 limits assumed: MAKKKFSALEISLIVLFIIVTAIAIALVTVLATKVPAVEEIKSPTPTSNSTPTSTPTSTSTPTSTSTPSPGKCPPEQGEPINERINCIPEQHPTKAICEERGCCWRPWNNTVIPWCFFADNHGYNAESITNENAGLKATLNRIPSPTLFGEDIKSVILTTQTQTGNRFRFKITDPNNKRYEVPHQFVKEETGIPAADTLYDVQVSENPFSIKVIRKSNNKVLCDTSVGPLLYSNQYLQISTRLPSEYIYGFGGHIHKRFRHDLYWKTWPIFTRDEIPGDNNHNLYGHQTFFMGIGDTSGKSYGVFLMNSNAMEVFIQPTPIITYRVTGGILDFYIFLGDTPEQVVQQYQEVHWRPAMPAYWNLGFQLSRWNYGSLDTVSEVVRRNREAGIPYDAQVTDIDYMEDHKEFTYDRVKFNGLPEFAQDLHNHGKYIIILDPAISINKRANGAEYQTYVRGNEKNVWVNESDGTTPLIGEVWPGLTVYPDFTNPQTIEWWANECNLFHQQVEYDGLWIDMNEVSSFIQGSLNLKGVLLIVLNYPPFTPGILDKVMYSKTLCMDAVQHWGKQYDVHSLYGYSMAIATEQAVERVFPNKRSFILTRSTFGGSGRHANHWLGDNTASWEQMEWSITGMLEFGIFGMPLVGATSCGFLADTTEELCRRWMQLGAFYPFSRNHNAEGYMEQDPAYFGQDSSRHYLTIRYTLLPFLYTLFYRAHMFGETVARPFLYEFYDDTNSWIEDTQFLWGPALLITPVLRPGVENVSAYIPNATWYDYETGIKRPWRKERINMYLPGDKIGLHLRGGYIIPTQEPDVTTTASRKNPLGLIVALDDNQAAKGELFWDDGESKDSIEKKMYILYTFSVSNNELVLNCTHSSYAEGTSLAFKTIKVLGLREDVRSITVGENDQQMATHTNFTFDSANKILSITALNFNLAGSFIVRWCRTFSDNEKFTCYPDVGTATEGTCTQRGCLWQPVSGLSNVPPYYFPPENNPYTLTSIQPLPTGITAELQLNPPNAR

Molecular target: Sucrase-isomaltase, intestinal (Rattus norvegicus, UniProt P23739)
Assay: Inhibition of rat small intestinal sucrase after 30 mins by glucose-oxidase method
Outline: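 Enzyme source was rat small-intestinal brush border membrane vesicles suspended in 0.1 M maleate buffer, pH 6.0. Substrate solutions, prior to mixing, were maltose 74 mM (maltase), sucrose 74 mM (sucrase) and isomaltose 7.4 mM (isomaltase). Substrate, inhibitor and enzyme were incubated at 37 °C for 30 min, then stopped by 2 min boiling. Released glucose was measured by glucose oxidase. Final DMSO was 2.5%.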

C[C@H]1O[C@H](O[C@H]2[C@H](O)[C@@H](O)[C@@H](O[C@H]3[C@H](O)[C@@H](O)C(O)O[C@@H]3CO)O[C@@H]2CO)[C@H](O)[C@@H](O)[C@@H]1N[C@H]1C=C(CO)[C@@H](O)[C@H](O)[C@H]1O (stereo partly specified) [ACARBOSE]
IC50: 1.5 µM
